# Laboratory results reported in US10280229B2, “Linkers and their application towards ADC” (MEDSHINE DISCOVERY INC., priority 2014, dated 2019).
# Tested on: breast cancer cell line HCC1954
# Assay: In vitro cytotoxicity study, breast cancer cell line HCC1954 (Cell Titer-Glo, 72 hours)
# Type: cell-based
# Details: HCC1954, 72 hours treatment, 0.00015-1 μg/ml; study ADC compared with control ADC-HA
# Experimental: Breast cancer cell line HCC1954 was grown in RPM11640 medium supplemented with 10% fetal bovine serum and maintained in an atmosphere of 5% CO2 in a humidified 37° C. incubator. The day before treatment, cells were collected and seeded into 96-well plates (2,000 cells per well). On the second day, cells were treated with a dilute concentration of Herceptin and ADCs of this invention (1, 0.3333, 0.1111, 0.037, 0.0123, 0.0041, 0.0014, 0.00046 and 0.00015 μg/ml). Each treatment was performed in triplicate. After 72 hours treatment, cell viability was assessed by Cell Titer-Glo kit (Promega) according to the manufacturer's instruction.
substance,measurement,value
Herceptin,antiproliferative activity: inhibition on the growth of breast cancer cell line HCC1954 in vitro,ineffective
